B1: murine MN-14: murine Class III anti-CEA MAb, reacting with CEA, unreactive with NCA and meconium antigen (antibody, listed as Mus sp., V domains shown)
VH: EVKLLESGGGLVQSGGSLKLSCAASGFDFTTYWMSWVRQAPGKGLEWIGEIHPDSSTINYAPSLKDKFIVSRDNAKNTLYLQMSKVRSEDTALYYCASLYFGFPWFAYWGQGTPVTVSA
VL: EIQLTQSHKMMSTSVGDRVSITCKASQDVGTSVAWYQQRPGQSPKLLIYWTSTRHTGVPDRFTGSVSGTDFTLTITNVQSEDLADYFCQQYSLYRSFGGGTKLEIK
modifications: constant regions

Test system: TT tumors
Assay: Naked anti-CEA MAb alone on growth of TT tumors in nude mice
Conditions: 0.5 mg/mouse i.v. one day after TT cells, then three weekly doses

Row | Molecule | mean tumor volume as % of the untreated control animals (day-37) | effect on tumor growth (specificity of treatment)
1 | hMN-14: humanized (CDR-grafted) Class III anti-CEA monoclonal antibody MN-14, naked | 42.7% | 
2 | B1 |  | results similar to the hMN-14
